# Reference: ChEMBL document CHEMBL3271974, “Synthesis of the antileukemic compound N,N(11)-[5-[bis(2-chloroethyl)amino]-1, 3-phenylene]bisurea” (J Med Chem, 1976)
# Assays:
# Mus musculus = test: Toxicity in mouse allografted with mouse P388 cells at 30 mg/kg; settings: in vivo
# P388 = test: Antitumor activity against mouse P388 cells allografted in mouse assessed as increase in survival rate at 30 mg/kg relative to control
smiles,measurement,setting,value
Cl.Nc1cc(N)cc(N(CCCl)CCCl)c1,Activity,Mus musculus,Non-toxic
same,T/C,P388,215%
